Amino acid sequences for entries named in this document (tags omitted). Chains listed by the source or under a name are the forms on record and can include a tag or linker. Residues count along the entry.
UniProt Q6DKI7, 41-326 limits assumed, form in doubt: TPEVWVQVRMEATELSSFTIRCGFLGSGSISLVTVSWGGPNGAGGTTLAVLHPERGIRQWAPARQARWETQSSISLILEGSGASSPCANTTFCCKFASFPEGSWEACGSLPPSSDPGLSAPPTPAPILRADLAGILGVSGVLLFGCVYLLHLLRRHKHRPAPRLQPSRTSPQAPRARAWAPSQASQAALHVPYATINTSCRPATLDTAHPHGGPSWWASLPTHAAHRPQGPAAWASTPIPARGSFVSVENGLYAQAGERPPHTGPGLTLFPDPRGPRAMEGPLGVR
UniProt Q6DKI7, 41-171 limits assumed, form in doubt: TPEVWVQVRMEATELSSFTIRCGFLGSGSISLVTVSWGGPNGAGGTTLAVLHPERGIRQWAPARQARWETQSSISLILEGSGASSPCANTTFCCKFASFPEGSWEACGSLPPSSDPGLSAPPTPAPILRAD

According to patent US20250223354A1:

How the values were obtained:
[1] = molecular target: human PVRIG expressed on cells (human) (UniProt Q6DKI7); assay: flow cytometry, CHO-huPVRIG cells
[2] = molecular target: cynomolgus PVRIG overexpressed on CHO cells (cynomolgus); assay: flow cytometry, CHO-cynoPVRIG cells
[3] = molecular target: human PVRIG protein with mouse IgG2a Fc tag (human; mouse) (UniProt Q6DKI7); assay: flow cytometry, competition: human PVRIG-mouse IgG2a Fc (1 ug/mL) binding to CHO-huCD112 cells

EC50 [1]: 6.42 nM
EC50 [2]: 3.58 nM
IC50 [3]: 1.1 nM
Substance: COM701-G4 (antibody)
